# Experimental data published in ChEMBL document CHEMBL1155915, “Anticonvulsant activity of some xanthone derivatives” (Bioorg Med Chem, 2008).
# Species on record: Mus musculus
# Experiment: Protective index, ratio of TD50 for mouse by rotarod test to ED50 for mouse by scMET test
# Assay type: functional
smiles,measurement,value
CCCC(CCC)C(=O)[O-].[Na+] [VALPROATE SODIUM],PI,2.3
